Patent publication US20250257071A9, “TRICYCLIC COMPOUND, METHOD FOR PREPARING SAME, AND USE THEREOF” (Sichuan Kelun-Biotech Biopharmaceutical Co., Ltd., priority 2021, published 2025)

Tests used:
[1] = tested on: peripheral blood mononuclear cells (PBMCs) in the presence of HCC1954 tumor cells; assay: TNF-α secretion by PBMCs co-incubated with HER2-expressing HCC1954 tumor cells (ELISA); assay type: cell-based, human; details: 68.4 nM test substance, HCC1954 + PBMC co-incubation, 48 h
[2] = tested on: HCC1954 human breast cancer cells; assay: Drug efficacy of ISAC in SCID-beige mouse xenograft tumor model (HCC1954); assay type: in vivo; details: 9.95 mg/kg, single i.p.

Trastuzumab: Trastuzumab monoclonal antibody, comparator and antibody part of the ISACs
TNF-α [1]: 17.39 pg/mL | Inhibition rate, TGI % Day 7 ([2]; Day 7): 17.64% | Inhibition rate, TGI % Day 14 ([2]; Day 14): 1.82% | Inhibition rate, TGI % Day 21 ([2]; Day 21): 5.13% | effect on tumor growth (in words) ([2]; after 21 days): no obvious effect | Tumor regression ([2]; animals with regression / animals in group): 0/6
